Reference: patent US7405036B2, “Process for reducing pathogens in a biological sample and removing a sample pellet from a sample tube” (priority 2001, dated 2008)

Test system: cryopreserved gaur (Bos gaurus) sperm
Experiment: Survival of thawed gaur sperm with soy-based trypsin inhibitor at recommended concentration
Details: 1.4 mg of the inhibitor for every 1 mg of trypsin

B1: soy-based trypsin inactivator: soy-based trypsin inhibitor product (Sigma Chemical Company) added to the 90% layer (protein, UniProt P01070 25-205, looked up)
Trypsin inhibitor A: DFVLDNEGNPLENGGTYYILSDITAFGGIRAAPTGNERCPLTVVQSRNELDKGIGTIISSPYRIRFIAEGHPLSLKFDSFAVIMLCVGIPTEWSVVEDLPEGPAVKIGENKDAMDGWFRLERVSDDEFNNYKLVFCPQQAEDDKCGDIGISIDHDDGTRRLVVSKNKPLVVQFQKLDKESL
  sperm survival post-exposure: not surviving beyond one hour post-exposure
